Results on two compounds are retold here after publication PMC10970644, “Molecular Pharmacology of Gelsemium Alkaloids on Inhibitory Receptors” (International Journal of Molecular Sciences, 2024).

Sequences of proteins named here, by UniProt entry; tags and fusion partners are left off. Residues count along the entry.
UniProt P20781, 23-496: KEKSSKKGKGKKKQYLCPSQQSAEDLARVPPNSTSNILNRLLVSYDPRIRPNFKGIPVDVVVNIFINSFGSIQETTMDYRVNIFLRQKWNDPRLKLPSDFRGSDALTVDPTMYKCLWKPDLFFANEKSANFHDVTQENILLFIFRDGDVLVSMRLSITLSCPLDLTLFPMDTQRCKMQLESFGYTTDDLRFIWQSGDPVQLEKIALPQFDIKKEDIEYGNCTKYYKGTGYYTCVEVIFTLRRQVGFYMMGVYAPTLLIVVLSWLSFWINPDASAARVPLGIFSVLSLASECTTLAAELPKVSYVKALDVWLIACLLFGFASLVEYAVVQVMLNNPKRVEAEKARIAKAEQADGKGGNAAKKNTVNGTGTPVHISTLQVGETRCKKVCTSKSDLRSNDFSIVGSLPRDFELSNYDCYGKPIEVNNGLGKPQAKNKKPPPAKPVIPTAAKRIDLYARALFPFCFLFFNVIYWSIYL

Common to all, as to assay type: cell-based
In one assay the target is T1, α2 GlyR (Rattus norvegicus, UniProt P22771).
T1 construct: The cells were transfected with plasmids encoding the following proteins; expressed in transfected cells; host or cells: HEK293 (ATCC CRL-1573)
T1 sequence (P22771 28-452): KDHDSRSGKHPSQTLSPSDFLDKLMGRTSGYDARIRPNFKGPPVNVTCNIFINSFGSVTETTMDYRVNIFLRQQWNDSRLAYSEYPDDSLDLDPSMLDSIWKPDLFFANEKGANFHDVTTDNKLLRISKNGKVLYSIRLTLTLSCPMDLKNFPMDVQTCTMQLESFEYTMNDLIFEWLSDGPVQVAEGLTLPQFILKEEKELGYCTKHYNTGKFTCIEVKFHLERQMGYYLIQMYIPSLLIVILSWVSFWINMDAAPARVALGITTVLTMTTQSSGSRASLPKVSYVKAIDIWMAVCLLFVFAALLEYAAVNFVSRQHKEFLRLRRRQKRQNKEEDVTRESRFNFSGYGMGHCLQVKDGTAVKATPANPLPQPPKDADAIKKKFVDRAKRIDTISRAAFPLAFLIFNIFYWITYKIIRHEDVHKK
On the procedure:
(§1) The cells were transfected with plasmids encoding the following proteins: (i). rat GlyR α (1, 2, 3) subunits alone or combined with rat β subunits (Uniprot Accession Numbers: Q546L7, P22771, P20236, P20781); and (ii). rat GABAAR α1 combined with rat β2 and γ2 subunits (Uniprot Accession Numbers: P62813, P63138, P18508). The EGFP expression was used as a marker of successful protein expression. The transfection was performed using Lipofectamine 2000 (Invitrogen, ThermoFisher, Carlsbad, CA, USA) using the fabricant protocol. The plasmids used to express GlyRs and GABAARs have been previously described. To track the successful expression of GlyR β subunits and the GABAA γ2 or β2 subunit, these proteins were subcloned in the pIRES2-EGFP vector. The transfection ratio to obtain β-containing GlyRs was 1:5 of α:β, while the expression of γ2-containing GABAA receptors was 1:2:5 of α:β:γ2 [14, 15]. Chimeric GlyRs were described in a previous report. Site directed mutagenesis was performed by Charm Gene Science Mutagenex LLC. (Cumming, GA, USA). All the constructs were checked by full-length sequencing (SNPSaurus, Eugene, OR, USA).
(§2) In brief, patch electrodes (3–4 MΩ) were pulled from borosilicate glasses in a PC-100 puller (Narishige, Tokyo, Japan); then, they were filled with an intracellular solution, which contained (in mM) 120 CsCl, 8 EGTA, 10 HEPES (pH 7.4), 4 MgCl2, 0.5 GTP, and 2 ATP. The extracellular solution contained (in mM) 140 NaCl, 5.4 KCl, 2.0 CaCl2, 1.0 MgCl2, 10 HEPES (pH 7.4), and 10 glucose. Whole-cell patch-clamp recordings were performed at −60 mV with an Axoclamp 200B (Molecular Devices, Sunnyvale, CA, USA) or with HEKA EPC-10 (HEKA Elektronik GmbH, Reutlingen, Germany) amplifiers. […] Brief (3–5 s) pulses of agonist together with alkaloids were applied to cells. Stock solutions of the alkaloids were prepared in high purity distilled water. Aliquots of these stock solutions were diluted in reservoirs containing extracellular solution. […] The concentration–response curve parameters for the alkaloid inhibition (IC50, nH, and the maximal current inhibition) were obtained from the fitted curve of normalized concentration–response data points to the equation Iagonist = Imax (agonist)nH/((agonist)nH + (EC50)nH). The IC50 curves are best-fit mean ± SE from pooled data. […] The inhibition constant (Ki) was calculated using the Cheng–Prusoff equation (Ki = IC50/((2 + ([Agonist]/EC50)^nH)^1/nH − 1). The concentration of agonist corresponds to the sub-saturating agonist concentration used to obtain the IC50 for each alkaloid on a given GlyR subtype.

The next assay addresses T2, α1β GlyR (Rattus norvegicus, UniProt P07727+P20781).
T2 construct: The cells were transfected with plasmids encoding the following proteins; expressed in transfected cells; host or cells: HEK293 (ATCC CRL-1573)
Here is the method:
as §1, §2

In the next assay the target is T3, α2β GlyR (Rattus norvegicus, UniProt P20781+P22771).
T3 construct: The cells were transfected with plasmids encoding the following proteins; expressed in transfected cells; host or cells: HEK293 (ATCC CRL-1573)
On the procedure: as §1, §2

The next assay addresses T4, α3 GlyR (Rattus norvegicus, UniProt P24524).
T4 construct: expressed in transfected cells; host or cells: HEK293 (ATCC CRL-1573)
T4 sequence (P24524 34-464): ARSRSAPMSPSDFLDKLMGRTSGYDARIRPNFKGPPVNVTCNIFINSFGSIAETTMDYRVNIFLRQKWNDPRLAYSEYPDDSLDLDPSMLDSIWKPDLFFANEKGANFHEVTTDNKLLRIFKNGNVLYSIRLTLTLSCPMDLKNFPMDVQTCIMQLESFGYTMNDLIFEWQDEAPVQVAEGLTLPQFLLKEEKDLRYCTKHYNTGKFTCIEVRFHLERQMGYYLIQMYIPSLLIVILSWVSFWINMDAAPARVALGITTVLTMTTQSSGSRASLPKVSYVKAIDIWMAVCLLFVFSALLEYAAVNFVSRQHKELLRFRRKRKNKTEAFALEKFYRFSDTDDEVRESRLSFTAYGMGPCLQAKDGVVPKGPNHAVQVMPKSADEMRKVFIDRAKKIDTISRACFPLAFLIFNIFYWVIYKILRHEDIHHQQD
On the procedure:
as §1, §2

The target in a further assay is T5, α1 GlyR (Rattus norvegicus, UniProt P07727).
T5 construct: expressed in transfected cells; host or cells: HEK293 (ATCC CRL-1573)
T5 sequence (P07727 29-457): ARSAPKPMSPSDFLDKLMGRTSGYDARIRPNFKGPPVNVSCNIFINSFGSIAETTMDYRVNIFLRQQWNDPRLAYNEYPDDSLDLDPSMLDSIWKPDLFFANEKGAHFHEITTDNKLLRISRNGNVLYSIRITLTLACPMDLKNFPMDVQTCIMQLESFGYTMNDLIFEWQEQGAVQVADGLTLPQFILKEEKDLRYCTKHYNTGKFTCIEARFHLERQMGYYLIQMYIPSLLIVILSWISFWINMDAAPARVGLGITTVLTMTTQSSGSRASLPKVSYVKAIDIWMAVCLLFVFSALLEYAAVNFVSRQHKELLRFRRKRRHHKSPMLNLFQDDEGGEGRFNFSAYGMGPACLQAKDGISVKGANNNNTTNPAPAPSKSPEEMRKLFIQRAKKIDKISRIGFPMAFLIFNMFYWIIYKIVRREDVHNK
Here is the method:
as §1, §2

A further assay addresses T6, α3β GlyR (Rattus norvegicus, UniProt P20781+P24524).
T6 construct: The cells were transfected with plasmids encoding the following proteins; expressed in transfected cells; host or cells: HEK293 (ATCC CRL-1573)
On the procedure: as §1
In brief, patch electrodes (3–4 MΩ) were pulled from borosilicate glasses in a PC-100 puller (Narishige, Tokyo, Japan); then, they were filled with an intracellular solution, which contained (in mM) 120 CsCl, 8 EGTA, 10 HEPES (pH 7.4), 4 MgCl2, 0.5 GTP, and 2 ATP. […]

A further assay deals with T7, α1GlyR G160E (Rattus norvegicus, UniProt P07727, G188E).
T7 construct: expressed in transfected cells; host or cells: HEK293 (ATCC CRL-1573)
T7 sequence (P07727 29-457 G188E): T5 sequence (P07727 29-457) with G160E
To be noted: read-out: EC50 of agonist (estimated). Here is the method:
as §1, §2

The next assay has as its target T8, α1GlyR F63A (Rattus norvegicus, UniProt P07727, F91A).
T8 construct: expressed in transfected cells; host or cells: HEK293 (ATCC CRL-1573)
T8 sequence (P07727 29-457 F91A): T5 sequence (P07727 29-457) with F63A
The note with it: read-out: EC50 of agonist (estimated). On the procedure: as §1, §2

Positions count from the first letter of the chain named.

As for `C=C[C@@]12CN(C)[C@H]3C[C@]14C(=Nc1ccccc14)[C@H]1C[C@@H]2[C@@H]3CO1` [koumine], the “Maximal Modulation Concentration” value is 200 µM at α2 GlyR; 300 µM at α1β GlyR; 300 µM on α2β GlyR; 300 µM at α3 GlyR; 300 µM at α1 GlyR; 300 µM on α3β GlyR. Also, on α1 GlyR (no potentiation), the “concentration from which glycinergic currents were inhibited” value was determined as 10 µM.

As for `NCC(=O)O` [glycine, reference compound], the EC50 (commonly the concentration that produces a half-maximal response) at α1GlyR G160E was over 3000 µM; at α1β GlyR (read-out: EC50 of agonist), 71 ± 4 µM; on α1GlyR F63A it was over 8000 µM; on α1 GlyR (read-out: EC50 of agonist), 76 ± 4 µM.
